ChEMBL document CHEMBL6182920, “The Discovery of C7-Substituted Norbornyl Bisamides as RXFP1 Small Molecule Agonists” (J Med Chem, 2025)
Activity calls are given as the source filed them. The calls are words filed in the database; no cut-off is given here.

Experiments:
[1] = molecular target: T1, Relaxin receptor 1 (Mus musculus) (UniProt Q6R6I7); assay: Agonist activity at mouse RXFP1 stably expressed in HEK293 cells assessed as intracellular cAMP accumulation by measuring maximal efficacy incubated for 30 mins by HTRF assay relative to control; assay type: functional, cell-based; details: filed as agonist
T1 sequence (whole entry): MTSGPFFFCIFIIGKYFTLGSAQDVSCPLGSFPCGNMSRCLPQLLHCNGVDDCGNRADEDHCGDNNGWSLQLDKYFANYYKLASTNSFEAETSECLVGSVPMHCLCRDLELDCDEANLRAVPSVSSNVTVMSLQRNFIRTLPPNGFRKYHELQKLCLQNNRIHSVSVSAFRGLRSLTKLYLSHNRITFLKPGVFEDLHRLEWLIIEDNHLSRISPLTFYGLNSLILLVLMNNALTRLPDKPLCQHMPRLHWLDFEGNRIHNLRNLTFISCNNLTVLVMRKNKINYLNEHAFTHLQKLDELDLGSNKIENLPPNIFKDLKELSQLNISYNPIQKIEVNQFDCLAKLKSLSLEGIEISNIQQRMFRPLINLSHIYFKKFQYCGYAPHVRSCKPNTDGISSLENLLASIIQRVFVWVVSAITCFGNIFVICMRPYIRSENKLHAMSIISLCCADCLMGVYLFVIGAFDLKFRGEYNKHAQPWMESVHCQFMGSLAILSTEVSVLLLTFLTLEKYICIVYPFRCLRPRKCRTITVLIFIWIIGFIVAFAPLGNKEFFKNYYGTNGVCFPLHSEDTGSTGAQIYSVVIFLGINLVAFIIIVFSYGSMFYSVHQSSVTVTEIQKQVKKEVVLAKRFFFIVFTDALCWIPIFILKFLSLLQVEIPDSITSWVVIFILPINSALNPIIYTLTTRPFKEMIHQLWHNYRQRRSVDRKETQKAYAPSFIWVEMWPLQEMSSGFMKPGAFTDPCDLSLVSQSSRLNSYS

[2] = molecular target: T2, Relaxin receptor 1 (Rattus norvegicus) (UniProt Q6R6I6); assay: Agonist activity at rat RXFP1 stably expressed in HEK293 cells assessed as intracellular cAMP accumulation by measuring maximal efficacy incubated for 30 mins by HTRF assay; assay type: cell-based; details: filed as agonist
T2 sequence (whole entry): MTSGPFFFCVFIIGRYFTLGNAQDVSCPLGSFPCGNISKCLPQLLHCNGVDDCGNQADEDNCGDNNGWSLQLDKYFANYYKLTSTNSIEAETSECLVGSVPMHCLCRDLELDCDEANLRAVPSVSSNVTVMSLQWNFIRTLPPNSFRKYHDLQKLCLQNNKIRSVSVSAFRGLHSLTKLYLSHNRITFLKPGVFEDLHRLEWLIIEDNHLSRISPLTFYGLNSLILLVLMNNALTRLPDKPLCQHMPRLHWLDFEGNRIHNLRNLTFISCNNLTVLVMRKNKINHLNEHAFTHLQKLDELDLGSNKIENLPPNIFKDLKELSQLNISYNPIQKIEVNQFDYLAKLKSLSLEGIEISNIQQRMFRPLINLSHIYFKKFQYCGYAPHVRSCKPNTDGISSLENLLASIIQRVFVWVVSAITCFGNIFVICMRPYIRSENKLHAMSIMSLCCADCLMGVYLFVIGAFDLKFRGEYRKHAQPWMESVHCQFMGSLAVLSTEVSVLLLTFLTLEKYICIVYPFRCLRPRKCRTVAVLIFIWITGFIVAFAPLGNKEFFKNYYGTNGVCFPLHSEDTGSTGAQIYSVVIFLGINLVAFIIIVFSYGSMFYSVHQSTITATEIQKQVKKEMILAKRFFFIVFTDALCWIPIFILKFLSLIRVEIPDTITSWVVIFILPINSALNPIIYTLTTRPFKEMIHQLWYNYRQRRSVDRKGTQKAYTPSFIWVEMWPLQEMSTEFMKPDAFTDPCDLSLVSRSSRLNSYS

[3] = molecular target: T1, Relaxin receptor 1 (Mus musculus); assay: Partial agonist activity at mouse RXFP1 stably expressed in HEK293 cells assessed as intracellular cAMP accumulation by measuring maximal efficacy incubated for 30 mins by HTRF assay relative to control; assay type: functional, cell-based; details: filed as partial agonist
[4] = molecular target: T2, Relaxin receptor 1 (Rattus norvegicus); assay: Agonist activity at rat RXFP1 stably expressed in HEK293 cells at 10 uM incubated for 30 mins by HTRF assay; assay type: cell-based
[5] = molecular target: T3, Relaxin receptor 1 (Homo sapiens) (UniProt Q9HBX9); assay: Agonist activity at human RXFP1 assessed as maximal efficacy relative to relaxin; assay type: functional; details: filed as agonist
T3 sequence (whole entry): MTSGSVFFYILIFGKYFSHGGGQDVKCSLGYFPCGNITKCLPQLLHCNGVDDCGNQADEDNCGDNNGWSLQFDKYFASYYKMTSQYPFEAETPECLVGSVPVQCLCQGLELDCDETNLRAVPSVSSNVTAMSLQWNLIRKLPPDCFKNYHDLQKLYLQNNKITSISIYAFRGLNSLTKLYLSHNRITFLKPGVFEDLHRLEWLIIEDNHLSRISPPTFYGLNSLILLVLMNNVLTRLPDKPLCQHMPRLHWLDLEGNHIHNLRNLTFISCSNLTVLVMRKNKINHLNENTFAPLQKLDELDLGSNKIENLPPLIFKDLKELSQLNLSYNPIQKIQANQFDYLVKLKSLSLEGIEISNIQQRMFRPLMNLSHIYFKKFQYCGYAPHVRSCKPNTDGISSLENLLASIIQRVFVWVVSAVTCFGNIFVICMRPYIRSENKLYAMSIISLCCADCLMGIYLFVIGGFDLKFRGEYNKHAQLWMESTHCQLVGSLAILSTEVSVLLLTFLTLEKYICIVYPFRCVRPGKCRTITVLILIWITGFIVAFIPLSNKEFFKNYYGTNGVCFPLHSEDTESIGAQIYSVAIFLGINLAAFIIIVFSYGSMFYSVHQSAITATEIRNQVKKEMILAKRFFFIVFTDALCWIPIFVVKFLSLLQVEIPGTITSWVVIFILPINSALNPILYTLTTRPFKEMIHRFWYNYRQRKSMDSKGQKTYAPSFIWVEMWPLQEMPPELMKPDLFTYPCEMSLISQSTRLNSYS

Compound	Emax [1]	Emax [2]	further results
CNC(=O)OC(C(=O)O)c1ccc(F)c(-c2ccc(OC)c(C(=O)N[C@H]3[C@@H](C(=O)Nc4ccc(F)c(C(F)(F)F)c4)[C@H]4CC[C@@H]3/C4=C\C3CC3)c2)c1 (stereo in doubt; 39)	150%	190%	
COc1ccc(-c2cc(CC(=O)O)ccc2F)cc1C(=O)N[C@H]1[C@@H](C(=O)Nc2ccc(F)c(C(F)(F)F)c2)[C@H]2CC[C@@H]1/C2=C\c1cnoc1	57%	60%	
COc1ccc(-c2cc(C(=O)NS(C)(=O)=O)ccc2F)cc1C(=O)N[C@H]1[C@@H](C(=O)Nc2ccc(F)c(C(F)(F)F)c2)[C@H]2CC[C@@H]1/C2=C\c1cnoc1	53%	64%	
COc1ccc(-c2cc(C(=O)O)ccc2F)cc1C(=O)N[C@H]1[C@@H](C(=O)Nc2ccc(F)c(C(F)(F)F)c2)[C@H]2CC[C@@H]1/C2=C\C(F)(F)F			Emax [3]: 77%
COc1ccc(-c2cc(C(=O)O)ccc2F)cc1C(=O)N[C@H]1[C@@H](C(=O)Nc2ccc(F)c(C(F)(F)F)c2)[C@H]2CC[C@@H]1/C2=C\c1cnoc1		71%	Emax [3]: 64%
CNC(=O)OC(C(=O)O)c1ccc(F)c(-c2ccc(OC)c(C(=O)N[C@H]3[C@@H](C(=O)Nc4ccc(F)c(C(F)(F)F)c4)[C@H]4CC[C@@H]3/C4=C\C3CC3)c2)c1 (stereo in doubt; 40)	150%	170%	
CNC(=O)OC(C(=O)O)c1ccc(F)c(-c2ccc(OC)c(C(=O)N[C@H]3[C@@H](C(=O)Nc4ccc(F)c(C(F)(F)F)c4)[C@H]4CC[C@@H]3/C4=C\c3cnoc3)c2)c1 (stereo partly specified)	73%	100%	
COc1ccc(-c2cc(C(O)C(=O)O)ccc2F)cc1C(=O)N[C@H]1[C@@H](C(=O)Nc2ccc(F)c(C(F)(F)F)c2)[C@H]2CC[C@@H]1/C2=C\c1cnoc1 (stereo partly specified)	78%	94%	
COc1ccc(-c2ccc(C(=O)O)cc2)cc1C(=O)N[C@H]1[C@@H](C(=O)Nc2ccc(F)c(C(F)(F)F)c2)[C@H]2CC[C@@H]1C2=C(C)C			Emax [3]: 52%
COc1cc(F)c(F)cc1C(=O)N[C@H]1[C@@H](C(=O)Nc2ccc(F)c(C(F)(F)F)c2)[C@H]2CC[C@@H]1/C2=C\c1ccccc1			Activity [4]: inactive
COc1cc(F)c(F)cc1C(=O)Nc1ccccc1C(=O)Nc1ccc(F)c(C(F)(F)F)c1			Emax [5]: 100%
CC(C)Oc1ccccc1C(=O)Nc1ccccc1C(=O)Nc1cccc(S(=O)(=O)C(F)(F)F)c1			Emax [5]: 65%
COc1cc(F)c(F)cc1C(=O)N[C@H]1[C@@H](C(=O)Nc2ccc(F)c(C(F)(F)F)c2)[C@H]2CC[C@@H]1C2=C(C)C			Activity [4]: inactive
COc1cc(F)c(F)cc1C(=O)N[C@H]1[C@@H](C(=O)Nc2ccc(F)c(C(F)(F)F)c2)[C@@H]2CC[C@@H]1C2C(C)C (single isomer, unassigned; isomer 2)			Activity [4]: inactive
